Marks after values point to notes of the source that are not given here.
Assay: logP determination by retention times (calibration with alkan-2-ones)
Settings: linear gradient 10% to 95% acetonitrile
[1] = values marked *: HPLC on reversed-phase C 18, 40° C., mobile phase 0.1% aqueous formic acid and acetonitrile
[2] = * HPLC reversed-phase C18, 40° C., mobile phase 0.1% aqueous formic acid and acetonitrile

Substance	logP [1]	logP [2]	further results
1-(4-{[2-(dimethylamine)-8H-[1,3]thiazole[4′,5′:4,5]cyclopenta[1,2-d]pyrimidin-5-yl]amino}phenyl)pyrrolidin-2-one [Example 870]	1.37*		
2-methyl-N-(3,4,5-trimethoxyphenyl)-4,5-dihydro[1,3]thiazole[4,5-h]quinazoline-8-amine [Example 94]			logP (HPLC, reversed-phase C 18, EEC Directive 79/831 Annex V.A8, method *: 40° C., 0.1% aqueous formic acid and acetonitrile): 2.18*
N2-tert-butyl-N8-phenyl-4,5-dihydro[1,3]thiazole[4,5-h]quinazoline-2,8-diamine [Example 918]	2.15*		
N8-(4-fluorophenyl)-N2,N2-dimethyl-4,5-dihydro[1,3]thiazole[4,5-h]quinazoline-2,8-diamine [Example 610]		1.78*	
N8-(4-fluorophenyl)-N2-(2-methoxyethyl)-N2-methyl-4,5-dihydro[1,3]thiazole[4,5-h]quinazoline-2,8-diamine [Example 773]		1.94*	
N-(3-methoxyphenyl)-2-methyl-4,5-dihydro[1,3]thiazole[4,5-h]quinazoline-8-amine [Example 444]		2.59*	
